Apparent affinities of Ab-95 variants for a coronavirus HR2 peptide

From the AlphaSeq antibody data of Engelhart et al. 2022 (doi:10.1038/s41597-022-01779-4), copy in the FLAb collection.

All variants were tested on one target, the spike HR2 peptide PDVDLGDISGINAS (SARS-CoV-2).

Ab-95 is the parent antibody, in scFv form: VH, then three GGGGS repeats, then VL. The heavy chain is unchanged in all variants.
VH: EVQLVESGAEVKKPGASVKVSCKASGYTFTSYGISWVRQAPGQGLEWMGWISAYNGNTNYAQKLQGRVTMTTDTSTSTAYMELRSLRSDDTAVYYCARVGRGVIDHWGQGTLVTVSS
VL: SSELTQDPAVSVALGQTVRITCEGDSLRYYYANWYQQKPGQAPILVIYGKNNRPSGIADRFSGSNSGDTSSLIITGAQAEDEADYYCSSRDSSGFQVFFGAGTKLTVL

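Phage display of a naive human antibody library on the peptide gave the parent. Variants in AAYL52 differ from the parent at up to three CDR positions; double and triple changes were sampled at random. AlphaSeq pools MATa yeast showing the antibodies with MATalpha yeast showing the peptide. Binding brings cells together so that they mate, and sequencing counts the barcode pairs among the diploids. Scores were corrected for input abundance and mapped to Kd with protein pairs of known affinity run in the same pool. The assay was run in three technical replicates.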

Variants are written as CDR1, CDR2 and CDR3 of the light chain (limits as in the source). Parent: EGDSLRYYYAN, GKNNRPS, SSRDSSGFQVF.
This list gathers variants with a substitution at G49 (VL, numbered from residue 1).
Each Kd is an estimate from the mating assay, the geometric mean of the replicates in which the pair was seen; lower is stronger.
"nd" means that the variant was in the library but no mating with the target was seen in any replicate; the authors take this as a sign of poor binding, and no number exists.
Parent in this assay: reference entry 200 nM, copy in this library 180 nM.
Background: pairings of library AAYL52 with three empty control strains gave a value in 28% of cases (median 8.2 µM, 5th percentile 800 nM). Values in that range, when seen in few replicates, are hard to tell from nonspecific mating.

- EGDSLRAYYAN, YKNNRES, SSRDSSGFQVF: nd (0 of 3 replicates)
- EGDSLRYYYYN, FNNNRPS, SSRDSSGFQVF: nd (0 of 3 replicates)
- EGDSLRYYYAN, WKNNRPS, MFRDSSGFQVF: nd (0 of 3 replicates)
- EGDSWRYYYAN, FKVNRPS, SSRDSSGFQVF: 26 µM (1 of 3 replicates)
- EGDMLRCYYAN, RKNNRPS, SSRDSSGFQVF: 630 µM (1 of 3 replicates)
- EGDSQRYYYAN, VKNNRQS, SSRDSSGFQVF: nd (0 of 3 replicates)
- EGDSLRYCDAN, TKNNRPS, SSRDSSGFQVF: 1.4 µM (3 of 3 replicates)
- EGDSLRCYYAY, PKNNRPS, SSRDSSGFQVF: 35 µM (3 of 3 replicates)
- KGDSLRYYYAN, RKNNRPS, SWRDSSGFQVF: nd (0 of 3 replicates)
- EGDSTRYYYAN, WKNNRPS, SSRDSSGFQVF: 2.8 µM (2 of 3 replicates)
- EGDSLRRQYAN, MKNNRPS, SSRDSSGFQVF: 58 nM (3 of 3 replicates)
- EGDSLRYYYAN, FKPNRPS, SSDDSSGFQVF: nd (0 of 3 replicates)
- EGDSARYYYAN, VKNNRPQ, SSRDSSGFQVF: nd (0 of 3 replicates)
- EGDSLRYYYAQ, YKNNRPS, SSRDSSGTQVF: 12 µM (3 of 3 replicates)
- EGDSLRYYHQN, TKNNRPS, SSRDSSGFQVF: 39 µM (2 of 3 replicates)
- EGDSLRCYYAN, PKNNRPS, SSRDCSGFQVF: nd (0 of 3 replicates)
- EGYSLEYYYAN, EKNNRPS, SSRDSSGFQVF: 1.6 µM (2 of 3 replicates)
- EGDSLYYYYAN, WKNNRPS, SSRDSSGFQVF: 8.8 µM (1 of 3 replicates)
- EGDSLRYNYAN, CKNNRPS, SSRDSSGFQVF: 320 nM (3 of 3 replicates)
- EGDSLRYYYAN, QKNNRPS, SSLDSSGFQVI: 3.0 µM (1 of 3 replicates)
- EGDSLRYNYAN, IKNNRPS, SSRSSSGFQVF: 6.3 µM (2 of 3 replicates)
- EGDSLRYYYAN, DKNNAPS, SSRDSSGFQVI: 16 µM (2 of 3 replicates)
- EGDSQRYYYIN, KKNNRPS, SSRDSSGFQVF: 2.5 µM (1 of 3 replicates)
- EGDSLRYYYAN, MKNNRPS, SSRFSSGDQVF: 2.7 µM (2 of 3 replicates)
- EGDSLRYYYAN, HKTNRPS, YSRDSSGFQVF: nd (0 of 3 replicates)
- EGDSLRYPYAN, WKNNRPS, SSRDSSGLQVF: 5.8 µM (1 of 3 replicates)
- EGDSLQYYYAN, FKNNRPP, SSRDSSGFQVF: 6.7 µM (1 of 3 replicates)
- EGDSLRYYYGN, LKNSRPS, SSRDSSGFQVF: 2.2 µM (1 of 3 replicates)
- EGDSLRYYYAW, VKNNRPS, SSRDSSGFQVM: 150 µM (1 of 3 replicates)
- EGDSLRYYYAN, EKNNRPS, SSRDSEGFQVF: 69 µM (1 of 3 replicates)
- EGDSLRYYYAN, VKNNRTS, SSRDFSGFQVF: nd (0 of 3 replicates)
- EGFELRYYYAN, MKNNRPS, SSRDSSGFQVF: nd (0 of 3 replicates)
- SGDSLRYYYAN, KKNNRPW, SSRDSSGFQVF: 15 µM (3 of 3 replicates)
- EGDSCRYYYAN, YKNNRRS, SSRDSSGFQVF: nd (0 of 3 replicates)
- EGDSLRTYYAN, LKNNRPS, SSRVSSGFQVF: 140 µM (1 of 3 replicates)
- EGDTLRYYYAN, AKNNRPS, SSRDESGFQVF: 21 µM (1 of 3 replicates)
- EGDSLRYYYQN, CKNNRPS, SSRWSSGFQVF: 45 µM (3 of 3 replicates)
- EGDSLRYYYAN, QKNNRPS, SSQDSSTFQVF: 15 µM (2 of 3 replicates)
- EGDSLRYYYAN, NKNGRPS, SSRDSSMFQVF: 290 nM (1 of 3 replicates)
- EGDHLRYYYAN, TKNNRPS, SSRDSSGFQVF: 3.2 µM (1 of 3 replicates)
- EGDSLRYYYAN, SKNHRPS, SSRDSSGFQVI: 1.3 µM (3 of 3 replicates)
- EGDSLRYYYAY, DKNNRPS, SSRDSFGFQVF: nd (0 of 3 replicates)
- EGDSLRYYYAN, AKNHRPS, SSRDSSKFQVF: 37 µM (1 of 3 replicates)
- EGCSLRYYYAN, AKNNRDS, SSRDSSGFQVF: nd (0 of 3 replicates)
- EGDSLRYYYAN, KKNNRPS, SSRRQSGFQVF: nd (0 of 3 replicates)
- EGDSLRYYYAN, AKQNRPS, SSRDSSRFQVF: 240 µM (1 of 3 replicates)
- EGDSLRYYYAN, HKNNRPS, SSRDSSCFQAF: 9.2 µM (3 of 3 replicates)
- EGDSWRYYYAN, MKNNRPS, DSRDSSGFQVF: 32 µM (1 of 3 replicates)
- RGDSLRYYYAN, TKNNRPS, SSRDSSGFQVF: 5.8 µM (3 of 3 replicates)
- EGDSLRYYYAN, EKNNSPS, SSRDSSGVQVF: 30 µM (1 of 3 replicates)

Top 6 of the variants detected in all replicates, tightest first:

* EGDSLRRQYAN, MKNNRPS, SSRDSSGFQVF = 58 nM (3 of 3 replicates)
* EGDSLRYNYAN, CKNNRPS, SSRDSSGFQVF = 320 nM (3 of 3 replicates)
* EGDSLRYYYAN, SKNHRPS, SSRDSSGFQVI = 1.3 µM (3 of 3 replicates)
* EGDSLRYCDAN, TKNNRPS, SSRDSSGFQVF = 1.4 µM (3 of 3 replicates)
* RGDSLRYYYAN, TKNNRPS, SSRDSSGFQVF = 5.8 µM (3 of 3 replicates)
* EGDSLRYYYAN, HKNNRPS, SSRDSSCFQAF = 9.2 µM (3 of 3 replicates)